Test results published in ChEMBL document CHEMBL2417429, “Direct and nitroxyl (HNO)-mediated reactions of acyloxy nitroso compounds with the thiol-containing proteins glyceraldehyde 3-phosphate dehydrogenase and alkyl hydroperoxide reductase subunit C” (J Med Chem, 2013).

Amino acid sequences for entries named in this document (tags omitted). A change or cut given only in a name is not applied to a line headed by its entry.
UniProt P46406: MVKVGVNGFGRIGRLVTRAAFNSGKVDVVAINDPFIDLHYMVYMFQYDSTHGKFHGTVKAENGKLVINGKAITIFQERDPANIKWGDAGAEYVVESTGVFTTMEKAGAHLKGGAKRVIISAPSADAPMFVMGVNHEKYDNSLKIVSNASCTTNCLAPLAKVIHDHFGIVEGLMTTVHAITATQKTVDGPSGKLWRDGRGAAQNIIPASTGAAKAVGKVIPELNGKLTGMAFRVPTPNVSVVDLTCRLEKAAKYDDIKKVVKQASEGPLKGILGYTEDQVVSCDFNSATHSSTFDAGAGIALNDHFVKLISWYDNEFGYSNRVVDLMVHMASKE

Key:
[1] = molecular target: Glyceraldehyde-3-phosphate dehydrogenase (Oryctolagus cuniculus) (UniProt P46406); assay: Binding affinity to rabbit muscle GAPDH peptide V232 to R245 assessed as formation of S-nitrosated peptide by LC-MS analysis
[2] = molecular target: Glyceraldehyde-3-phosphate dehydrogenase (Oryctolagus cuniculus) (UniProt P46406); assay: Binding affinity to rabbit muscle GAPDH assessed as structural modifications of Cys149, Cys153 and Cys244 at 5 mM after 60 mins by MALDI-TOF MS
[3] = molecular target: Glyceraldehyde-3-phosphate dehydrogenase (Oryctolagus cuniculus) (UniProt P46406); assay: Binding affinity to rabbit muscle GAPDH peptide V232 to R245 assessed as formation of mixture of sulfinamide and sulfinic acid by LC-MS analysis
Summary of the method: (§1)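 GAPDH from rabbit muscle, untreated or donor-treated, digested with trypsin (monomer:trypsin 20:1 w/w) in 50 mM Tris-HCl, 37 °C, 12−16 h; quenched by freezing. 10 μM digest in 1:1 2% formic acid/methanol run by LC-MS on a high-resolution Orbitrap in positive ion mode; tryptic peptides identified by m/z.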

[4] = molecular target: Glyceraldehyde-3-phosphate dehydrogenase (Oryctolagus cuniculus) (UniProt P46406); assay: Binding affinity to rabbit muscle GAPDH tryptic peptide I143 to K159 assessed as formation of disulfide bond by LC-MS analysis; summary of the method: as §1
[5] = molecular target: Glyceraldehyde-3-phosphate dehydrogenase (Oryctolagus cuniculus) (UniProt P46406); assay: Inhibition of rabbit muscle GAPDH assessed as residual enzyme activity after 60 mins by spectrophotometry
Summary of the method: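 Rabbit muscle GAPDH incubated with donor (0.1, 0.5, 1, 5, 10, 100 μM) in 0.1 M sodium phosphate pH 7.4, 25 °C, 60 min. NAD+ and glyceraldehyde-3-phosphate then added in a sealed cuvette; NADH formation followed at 340 nm every minute for 30 min. Runs typically in triplicate, mean ± SE; IC50 from sigmoidal fit of percent-of-control activity.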

[6] = molecular target: Glyceraldehyde-3-phosphate dehydrogenase (Oryctolagus cuniculus) (UniProt P46406); assay: Binding affinity to rabbit muscle GAPDH assessed as structural modifications at 5 mM after 60 mins by SDS-PAGE

| Activity [1] | SMILES | Activity [2] | Activity [3] | Activity [4] | inhibition [5] | Activity [6] |
| --- | --- | --- | --- | --- | --- | --- |
| Active | N[C@@H](CCC(=O)N[C@@H](CSN=O)C(=O)NCC(=O)O)C(=O)O | – | – | – | – | – |
| – | O=NC1(OC(=O)C(F)(F)F)CCCCC1 [1-NITROSOCYCLOHEXYL TRIFLUOROACETATE] | Active | Active | Active | Dose-dependent effect | inactive |

Structures can show the parent of a compound that is named as a salt. Activity calls are given as the source filed them. The calls are words filed in the database; no cut-off is given here.
